Results on three compounds are retold here after patent publication US8163732B2, “Tricyclic heteroaryl compounds useful as inhibitors of Janus kinase” (Vertex Pharmaceuticals Incorporated, priority 2005, dated 2012).

The chains behind the UniProt entries cited, without tags or fusion partners.
UniProt O60674, whole entry: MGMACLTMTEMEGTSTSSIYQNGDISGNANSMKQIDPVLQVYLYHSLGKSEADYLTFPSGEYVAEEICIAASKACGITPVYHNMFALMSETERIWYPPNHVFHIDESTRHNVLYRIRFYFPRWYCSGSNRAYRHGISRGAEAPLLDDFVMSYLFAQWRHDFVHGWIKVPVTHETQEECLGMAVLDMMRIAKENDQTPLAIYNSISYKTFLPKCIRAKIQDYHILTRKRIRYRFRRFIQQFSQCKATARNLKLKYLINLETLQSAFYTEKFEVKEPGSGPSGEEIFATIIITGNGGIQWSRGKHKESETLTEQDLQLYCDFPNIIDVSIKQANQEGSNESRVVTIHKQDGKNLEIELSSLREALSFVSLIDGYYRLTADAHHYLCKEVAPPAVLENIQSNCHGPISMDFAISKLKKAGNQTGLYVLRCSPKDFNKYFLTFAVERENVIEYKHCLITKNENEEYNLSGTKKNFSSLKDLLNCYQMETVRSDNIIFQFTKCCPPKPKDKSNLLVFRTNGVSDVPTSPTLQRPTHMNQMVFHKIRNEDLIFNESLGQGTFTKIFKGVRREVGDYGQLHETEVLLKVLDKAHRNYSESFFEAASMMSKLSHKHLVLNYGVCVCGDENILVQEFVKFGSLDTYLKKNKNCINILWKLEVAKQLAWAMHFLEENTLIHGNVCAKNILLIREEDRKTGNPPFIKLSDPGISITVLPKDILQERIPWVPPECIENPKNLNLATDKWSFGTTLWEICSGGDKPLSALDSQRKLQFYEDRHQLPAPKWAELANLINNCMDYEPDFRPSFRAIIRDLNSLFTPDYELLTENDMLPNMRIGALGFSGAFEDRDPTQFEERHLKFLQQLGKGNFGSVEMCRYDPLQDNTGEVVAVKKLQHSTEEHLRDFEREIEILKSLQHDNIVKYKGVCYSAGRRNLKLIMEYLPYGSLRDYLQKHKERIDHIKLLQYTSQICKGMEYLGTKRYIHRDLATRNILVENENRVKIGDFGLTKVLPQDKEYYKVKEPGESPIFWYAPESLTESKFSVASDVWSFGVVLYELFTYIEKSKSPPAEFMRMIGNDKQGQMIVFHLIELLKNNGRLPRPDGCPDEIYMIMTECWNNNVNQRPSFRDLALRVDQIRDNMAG
UniProt P52333, whole entry: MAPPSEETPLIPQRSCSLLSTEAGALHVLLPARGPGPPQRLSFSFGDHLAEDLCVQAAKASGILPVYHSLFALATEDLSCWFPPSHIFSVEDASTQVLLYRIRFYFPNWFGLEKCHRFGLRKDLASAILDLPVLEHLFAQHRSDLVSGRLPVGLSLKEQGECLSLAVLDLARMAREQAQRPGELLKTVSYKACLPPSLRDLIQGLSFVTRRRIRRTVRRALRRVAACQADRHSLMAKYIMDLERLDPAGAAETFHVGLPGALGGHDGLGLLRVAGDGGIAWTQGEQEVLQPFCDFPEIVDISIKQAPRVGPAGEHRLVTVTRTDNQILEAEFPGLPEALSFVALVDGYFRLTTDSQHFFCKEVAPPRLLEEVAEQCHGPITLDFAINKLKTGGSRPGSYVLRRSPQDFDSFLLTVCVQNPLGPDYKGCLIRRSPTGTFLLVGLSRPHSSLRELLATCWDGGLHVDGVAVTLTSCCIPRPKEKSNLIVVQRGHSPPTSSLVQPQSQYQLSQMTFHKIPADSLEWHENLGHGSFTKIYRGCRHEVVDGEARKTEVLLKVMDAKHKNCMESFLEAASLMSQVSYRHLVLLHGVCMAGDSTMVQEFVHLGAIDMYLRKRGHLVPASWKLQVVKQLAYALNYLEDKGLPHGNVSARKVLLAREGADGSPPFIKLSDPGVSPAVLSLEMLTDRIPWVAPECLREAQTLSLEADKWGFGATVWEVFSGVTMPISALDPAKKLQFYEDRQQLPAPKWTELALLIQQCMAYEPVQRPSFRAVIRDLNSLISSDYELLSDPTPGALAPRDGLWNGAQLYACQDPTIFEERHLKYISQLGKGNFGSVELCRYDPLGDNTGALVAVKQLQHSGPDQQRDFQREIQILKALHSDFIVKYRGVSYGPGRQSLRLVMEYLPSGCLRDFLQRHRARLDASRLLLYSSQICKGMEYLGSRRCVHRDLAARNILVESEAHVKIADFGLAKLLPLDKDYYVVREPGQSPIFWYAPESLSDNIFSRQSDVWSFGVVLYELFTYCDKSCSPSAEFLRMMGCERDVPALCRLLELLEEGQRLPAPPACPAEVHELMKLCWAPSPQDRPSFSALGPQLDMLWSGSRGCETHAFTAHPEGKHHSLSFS

pKi: −log10 of the molar value.

For assay [1], the target named is JAK-2 (Homo sapiens, UniProt O60674). The experiment in a line: JAK-2 inhibition assay. It is filed as biochemical. The following applies: read-out: JAK-2 Ki; Ki (app); 15 μM poly(Glu)4Tyr, 12 μM ATP, 25° C.
Assay [2] addresses JAK-3 (Homo sapiens, UniProt P52333). In words: JAK-3 inhibition assay. To be noted: read-out: JAK-3 Ki; Ki (app); 1 μM poly(Glu)4Tyr, 5 μM ATP, 1 nM JAK-3, 25° C.

By pKi is commonly meant the Ki on a negative log10 scale, so that one unit is a factor of ten. In the case of `CCOC(=O)C1(c2ccc(OC)cc2)Nc2ccccc2-c2ncnc3[nH]cc1c23` (stereo not drawn), the pKi in assay [1] and in assay [2] was 5.60 to 6.60 each time.

Regarding `Oc1ccc([C@@H]2Nc3ccccc3-c3ccnc4[nH]cc2c34)c(Cl)c1`, the pKi in assay [1] and in assay [2] was above 6.60 each time.

`Oc1ccc(C2=Nc3ccccc3-c3ncnc4[nH]cc2c34)cc1`: the pKi in assay [1] and in assay [2] was above 6.60 throughout.
